Screening data (PubChem)
Sampled rows, rich in hits. Any-hit rate of the full collection: about 2.1%.
A549 viability = kills or reduces viability of A549 cells in Nrf2 counter-screen | A549 ARE-Fluc cells, CellTiter-Fluor viability, 18-24 h | Potency, µM (top dose mostly 46 µM), most hits filed as inhibitors | AID 504648 | actives 0.16% (n = 390,000)
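Cytotoxicity counterscreen: CellTiter-Fluor fluorescence was measured in A549 ARE_Fluc cells after 18-24 h of compound exposure in a concentration series. The subsequent BugLite luminescent read reports ARE-luciferase activity.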
miR-21 FLuc = miR-21 reporter, rising signal; Potency, µM (doses to about 38.3 µM); HeLa miR-21 FLuc reporter, luciferase, 48 h; 340,000 tested, under 10 active; active = well fitted rising curve with a large enough effect; inconclusive = small, poorly fitted or top-dose-only effect; inactive = no such curve, though single readings can be large or run the other way;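 further: miR-21 action dims this reporter so a rising signal means less miR-21 action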
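HeLa cells stably expressing CMV-driven firefly luciferase with a downstream miR-21 binding sequence, endogenously expressing miR-21, were treated with titrations (up to about 40uM final) for 48 hours at 37 degree Celsius. Luciferase luminescence was read after lysis.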
Nrf2 activator = activates Nrf2 signaling. Potency, µM (doses to about 46.1 µM), actives largely listed as activators. actives 0.31% (n = 410,000). AREc32 ARE-luciferase reporter (MCF7-derived line), luminescence, 24 h; further: nearly all actives have a fitted effect of over 65% in size
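AREc32 cells carrying an ARE-driven firefly luciferase reporter were seeded at 1000 cells/well in OPTI-MEM with 5% FBS, then exposed to compound for 24 hr at 37 deg C. Luminescence was read with Steady-Glo after 30 min at RT.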
TSG101-PTAP inh = blocks PTAP/TSG101 interaction to inhibit HIV-1 budding | Q99816 | Fluorescence polarization, FITC-PTAP peptide / Tsg101 binding | Potency, µM (titrated, usually from 115 µM), usual class: inhibitors | 340,000 tested, under 10 active; active means well fitted inhibition curve with a large enough effect in the main read-out, with a control signal flat, not every such curve was filed as active; inconclusive means small, poorly fitted or top-dose-only effect, or effect the other way, or a change in a side signal; inactive means no such curve, though single readings can be large or run the other way
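Tsg101 binding domain (10 uM final) was mixed with compound and a FITC-labeled PTAP peptide (50 nM final) in HEPES pH 7.5 buffer with NaCl, Tween 20, EDTA and TCEP; fluorescence polarization was read after 20 min at r.t.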
Glioma ERSR ind = inducers of ER stress response in human glioma cells. U87-MG GRP78 promoter luciferase reporter, 16 h. Potency, µM, most hits filed as activators. actives 0.02% (n = 420,000). AID 602332; further: series mostly up to about 76 µM; nearly all actives have a fitted effect of over 35% in size
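Stably transfected U87-MG human glioma cells carrying a GRP78-based luminescent sensor were seeded at 1000 cells/well, pin-dosed with compounds and incubated 16 h. Luciferase reagent was then added, and end-point luminescence was read after 10 min at room temperature.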
Nrf2 block = inhibitors of Nrf2 signaling; AID 504444; A549 ARE-Fluc reporter, luciferase luminescence, 18-24 h; actives 2.1% (n = 360,000); Potency, µM (top dose mostly 46 µM), actives largely listed as inhibitors; further: nearly all actives have a fitted effect of over 60% in size
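Cells were seeded and rested 2 h, then exposed to compounds for 18-24 h. CellTiter-Fluor was read first as a viability measure. BugLite was added 15 min before the final luminescent read of ARE-luciferase activity in A549 cells.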
Hits are given with their value; i = inactive; ? = inconclusive; nt = no result given. Unless noted, the call rests on the fitted dose curve; in most records, active means well fitted curve in the direction sought with a large enough effect; inconclusive means small, poorly fitted or top-dose-only effect, or another doubt; inactive means no such curve, though single readings can be large; an effect the other way counts as inactive or inconclusive.

SMILES	A549 viability	miR-21 FLuc	Nrf2 activator	TSG101-PTAP inh	Glioma ERSR ind	Nrf2 block
COc1ccc(/C=N/n2cnn(Cc3ccccc3Cl)c2=S)cc1OC	i	i	i	i	i	18µM
COc1ccccc1N(C(=O)CCl)c1cn(C(C)=O)c2ccccc12	i	?	?	i	i	23µM
Cc1ccc(NS(=O)(=O)c2cc3c(cc2/C=C/c2ccccc2)NC(=O)CO3)cc1C	i	nt	nt	nt	nt	i
COc1cc(=O)n2c(c1C(=O)N(C)Cc1nonc1C)CCN(CC1CC=CCC1)CC2 (stereo not given)	nt	nt	nt	nt	i	nt
Cc1cc(C)n(-c2ccc(C(=O)N3CCN(S(=O)(=O)c4ccc(C(C)C)cc4)CC3)cc2)n1	i	nt	i	i	i	23µM
Cc1cc(C)n(-c2ccc(C(=O)N3CCN(S(=O)(=O)c4cccc(Br)c4)CC3)cc2)n1	i	nt	i	i	i	?
Cc1nc(Nc2ccccc2O)c2oc3ccccc3c2n1	i	i	i	i	i	i
Cc1nc(Nc2ccccc2F)c2oc3ccccc3c2n1	i	i	3.2µM	i	i	?
O=C1c2cc(F)ccc2-n2c1nc1ccccc1c2=O	12µM	i	i	i	i	6.5µM
CCN1CCN(C(=O)c2cnn(-c3ncc4c(n3)-c3ccccc3CCC4)c2COC)CC1	nt	nt	nt	nt	i	nt
CCC(C(=O)Nc1ccccc1F)n1nc(C)c2c(C)n(-c3ccccc3)nc2c1=O (stereo not given)	i	i	i	i	i	i
CCC(C(=O)NC1CCCCCC1)n1nc(C)c2c(C)n(-c3ccccc3)nc2c1=O (stereo not given)	i	i	i	i	i	i
Cc1ccc(-n2nc3c(=O)n(CC(=O)NC(C)CCc4ccccc4)nc(C)c3c2C)cc1 (stereo not given)	i	i	i	i	i	5.2µM
Cc1ccc(-n2nc3c(=O)n(C(C)C(=O)NCCc4cccs4)nc(C)c3c2C)cc1 (stereo not given)	i	i	i	i	i	12µM
Cc1nn(C(C)C(=O)NCc2cccs2)c(=O)c2nn(-c3ccccc3)c(C)c12 (stereo not given)	i	i	i	i	i	i
CCC(C(=O)Nc1cc(F)ccc1F)n1nc(C)c2c(C)n(-c3ccc(C)cc3)nc2c1=O (stereo not given)	?	?	i	i	i	23µM
Cc1ccc(-n2nc3c(=O)n(CC(=O)NCc4ccccc4)nc(C)c3c2C)cc1	i	i	i	i	i	?
CCC(C(=O)NC1CC1)n1nc(C)c2c(C)n(-c3ccc(C)cc3)nc2c1=O (stereo not given)	i	i	i	i	i	16µM
CCC(C(=O)NCc1ccc(OC)c(OC)c1)n1nc(C)c2c(C)n(-c3ccc(C)cc3)nc2c1=O (stereo not given)	i	?	i	nt	i	26µM
COc1ccc(CNC(=O)C(C)n2nc(C)c3c(C)n(-c4ccc(C)cc4)nc3c2=O)cc1 (stereo not given)	i	i	i	i	?	?
O=C(c1cccc(C(F)(F)F)c1)C1CCCN(C(=O)c2cc(C3CC3)[nH]n2)C1 (stereo not given)	i	i	i	i	i	?
Cc1cc(C(=O)N2CCCC(C(=O)c3cccc(C(F)(F)F)c3)C2)n[nH]1 (stereo not given)	i	i	i	i	i	18µM
CC(NC(=O)C1CCCC1)c1ccc(Br)cc1 (stereo not given)	i	i	i	i	i	26µM
CC(NC(=O)C1CCC1)c1ccc(Br)cc1 (stereo not given)	i	i	i	i	i	i
Cc1cccc(NC(=S)NCc2ccco2)n1	i	i	13µM	i	i	i
CC(=O)c1ccc(NS(=O)(=O)c2cc3c(cc2C)N(C)CCO3)cc1	i	i	i	i	i	i
CC(=O)c1cccc(NS(=O)(=O)c2cc3c(cc2C)N(C(C)=O)CCO3)c1	?	?	i	i	i	18µM
Cc1cc2c(cc1S(=O)(=O)Nc1ccc(C(C)C)cc1)OCCN2C	i	i	i	nt	i	13µM
